Results as given in PubChem BioAssay AID2291 (The Scripps Research Institute Molecular Screening Center, 2010).
This is a selection; strong and weak results do not stand in their true shares. Activity calls are given as the source filed them. Cut-off read from the data, not from the text of the source: active = inhibition above about 30%; inactive = the rest.

The chains behind the UniProt entries cited, without tags or fusion partners.
UniProt Q9Y570, whole entry: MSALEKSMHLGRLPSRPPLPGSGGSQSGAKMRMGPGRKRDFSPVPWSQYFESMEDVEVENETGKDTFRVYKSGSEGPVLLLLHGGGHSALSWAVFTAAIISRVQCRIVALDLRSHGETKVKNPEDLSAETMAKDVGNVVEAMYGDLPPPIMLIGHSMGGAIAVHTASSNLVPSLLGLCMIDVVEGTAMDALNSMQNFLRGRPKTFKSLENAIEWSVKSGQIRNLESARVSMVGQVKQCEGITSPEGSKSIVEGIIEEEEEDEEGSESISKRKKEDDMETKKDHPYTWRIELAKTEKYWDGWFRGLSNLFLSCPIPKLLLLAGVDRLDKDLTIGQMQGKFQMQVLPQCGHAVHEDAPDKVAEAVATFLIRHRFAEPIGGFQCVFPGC

What follows are compounds tested against Protein phosphatase methylesterase 1 (Homo sapiens) (UniProt Q9Y570) (assay: Maybridge compound blocking human PME-1 (AID 2291)). Settings: recombinant PME-1, FP-Rh probe fluorescence polarization; at 9 µM; hits give high values.

SMILES	inhibition
O=[N+]([O-])C1([N+](=O)[O-])COCOC1	inactive: 1.3%
